Test: Solubility of abrasive-grain material at normal temperature
Type: physicochemical

Solubility: 28.2%
Substance: NH4Cl [Example 1]

Source: US6656022B2, “Method for polishing a semiconductor substrate member” (Hitachi, Ltd., priority 2001, dated 2003)
